Source: PubChem BioAssay (National Center for Advancing Translational Sciences (NCATS))
Most compounds without a hit are left out; they make up all but 13% or so of the library.
G9a block: inhibitors of human histone lysine methyltransferase G9a | Potency, µM (highest dose often 102 µM), without a hit: top-dose activity, negative = inhibition, most hits filed as inhibitors | G9a H3K9 monomethylation, AlphaScreen, 2 h | 8.8% of 350,000 active | Q96KQ7 | AID 504332; also: potency is read from the fitted curve at half-maximal effect; % is scaled to controls: 0 for no effect and ±100 for the full control effect; nearly all actives have a fitted effect of over 75% in size
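Chemiluminescent proximity detection of H3K9 monomethylation, read after 10 min bead incubation in the dark. Reaction: 20 nM G9a, 500 nM biotin-H3K9 peptide, 20 uM SAM cofactor, 2 h, room temperature, following 15 min enzyme-compound preincubation.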
Sfp PPTase inh: qHTS Assay for Inhibitors of Bacillus subtilis Sfp phosphopantetheinyl transferase (PPTase); actives 3.5% (n = 310,000); AID 1490, 2009; Biochemical Sfp PPTase activity, qHTS; Potency, µM, for inactives: max response, negative = inhibition, usual class: inhibitors; 4'-phosphopantetheinyl transferase ffp (Bacillus subtilis), Q9F4F7; active means well fitted inhibition curve with a large enough effect; inconclusive means small, poorly fitted or top-dose-only effect, or another doubt; inactive means no such curve, though single readings can be large or run the other way;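 further: the enzyme is Sfp with the accession as filed and its product quenches rhodamine fluorescence; potency means the concentration at half of the fitted maximal effect; 0% = enzyme reaction without inhibitor and -100% = no enzyme wells; top concentration of the series not given in the record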
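Fluorescence-quenching assay: 15 nM Sfp-PPTase preincubated 15 min at room temperature with compound, then 5 uM rhodamine-CoA and 12.5 uM BHQ-2-labelled YbbR peptide added. Fluorescence (ex 525/em 598 nm) read at start and after 30 min; difference gives rate.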
miR-21 reporter: miR-21 reporter, rising signal | HeLa miR-21 FLuc reporter, luciferase, 48 h | Potency, µM (top dose mostly 38.3 µM), inactives show at the highest dose reporter change, positive = more light | 340,000 tested, under 10 active | AID 2288; active = well fitted rising curve with a large enough effect; inconclusive = small, poorly fitted or top-dose-only effect; inactive = no such curve, though single readings can be large or run the other way;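 note: % of control where 0% means no effect; miR-21 action dims this reporter so a rising signal means less miR-21 action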
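Using DMEM plus 10% FBS, HeLa miR-21-FLuc cells are incubated with test compounds (final up to about 40uM) for 48 hours; firefly luciferase signal is then imaged following reagent-mediated lysis.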
Lamin A splicing: changes lamin A minigene splicing in HeLa cells; HeLa LMNA splicing GFP/RFP minigene ratio, 48 h; Potency, µM (series often up to 46.1 µM), without a hit: at the highest dose ratio change, negative = inhibition, usual class: inhibitors; 0.01% of 200,000 active; active = well fitted inhibition curve with a large enough effect in the signal ratio, with a control signal flat, not every such curve was filed as active; inconclusive = small, poorly fitted or top-dose-only effect, or effect the other way, or a change in a side signal; the % refers to the signal ratio; also: potency is read from the fitted curve at half-maximal effect; % is scaled to controls: 0 for no effect and ±100 for the full control effect
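S3 HeLa stable clones carrying a lamin A-EGFP splicing minigene plus DsRed2 were seeded at 600 cells/well in Opti-MEM with 2% FBS, pin-dosed and incubated 48 h at 37°C. Acumen cytometry (488 nm) gave the GFP/RFP total-intensity ratio.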
JMJD2E inh: blocks human JMJD2E demethylase activity. JMJD2E catalytic domain, FDH-coupled NADH fluorescence (FDH is formaldehyde dehydrogenase). Potency, µM (titrated, usually from 57.1 µM), for the others: at the top dose activity change, negative = inhibition, hits mostly inhibitors. 1.6% of 230,000 active. AID 2147; active = well fitted inhibition curve with a large enough effect, not every such curve was filed as active; inconclusive = small, poorly fitted or top-dose-only effect, or another doubt; inactive = no such curve, though single readings can be large or run the other way;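 also: potency is read from the fitted curve at half-maximal effect; 0% = wells with enzyme and -100% = buffer wells without enzyme; nearly all actives have a fitted effect of over 50% in size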
ALDH1A1 block: inhibitors of human aldehyde dehydrogenase 1A1; AID 1030; Potency, µM (highest dose often 75.3 µM), for the others: at the top dose activity, negative = inhibition, hits mostly inhibitors; Purified ALDH1A1, NADH fluorescence, propionaldehyde substrate; P00352; 7.3% of 220,000 active; active = well fitted inhibition curve with a large enough effect, not every such curve was filed as active; inconclusive = small, poorly fitted or top-dose-only effect, or another doubt; inactive = no such curve, though single readings can be large or run the other way;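 also: potency is read from the fitted curve at half-maximal effect; plate controls were no enzyme wells and a reference inhibitor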
* hit, by the source's call; ? = inconclusive; . = no result given; [ ] = remark or other dose. Unless noted, calls follow the shape of the dose curve; as a rule, active = well fitted curve in the direction sought with a large enough effect; inconclusive = small, poorly fitted or top-dose-only effect, or another doubt; inactive = no such curve, though single readings can be large; an effect the other way counts as inactive or inconclusive.

Abbreviations: A = G9a block; B = Sfp PPTase inh; C = miR-21 reporter; D = Lamin A splicing; E = JMJD2E inh; F = ALDH1A1 block
SMILES: Cc1cc2ccccn2c1C(=O)c1cccc([N+](=O)[O-])c1
  A: 39.8µM*; B: 1.1%; C: 0.3%; D: .; E: -3.4%; F: -7.7%
SMILES: CC(=O)c1cccc([N+](=O)[O-])c1
  A: -2.5%[0.501 µM]; B: .; C: .; D: .; E: .; F: 28.2µM*
SMILES: O=C(O)c1cccc([N+](=O)[O-])c1
  A: .; B: .; C: .; D: .; E: .; F: 1.8%
SMILES: Cc1ccc(S(=O)(=O)CCC(=O)c2cccc([N+](=O)[O-])c2)cc1
  A: 1.41µM*; B: 22.4µM*; C: ?; D: .; E: .; F: .
SMILES: Cc1cc2ccccn2c1C(=O)c1ccc([N+](=O)[O-])cc1[N+](=O)[O-]
  A: ?; B: -5.8%; C: 1.6%; D: .; E: .; F: .
SMILES: O=C(C#Cc1ccccc1)c1cccc([N+](=O)[O-])c1
  A: 3.55µM*; B: -24.2%; C: 8.4%; D: -3.4%; E: -7.6%; F: ?
SMILES: N/C(=N\OC(=O)Oc1ccccc1)c1cccc([N+](=O)[O-])c1
  A: 6.8%[59 µM]; B: 3.9%; C: 0.0%; D: 10.1%; E: 1.6%; F: ?
SMILES: CC(=O)c1cccc(Nc2nc3ccccc3n3cnnc23)c1
  A: -16.1%; B: -6.6%; C: -23.3%; D: .; E: .; F: .
SMILES: O=C(O)c1ccc2c(c1)C(=O)N([C@@H](Cc1ccc(O)cc1)C(=O)O)C2=O
  A: 7.8%[12.7 µM]; B: 19.3%; C: .; D: .; E: .; F: .
SMILES: Cc1ccc(S(=O)(=O)Cc2cc(F)c([N+](=O)[O-])cc2[N+](=O)[O-])cc1
  A: 50.1µM*; B: -1.9%; C: ?; D: .; E: .; F: .
SMILES: CCOC(=O)c1ccc([N+](=O)[O-])c(CS(=O)(=O)c2ccc(Cl)cc2)c1
  A: -17.0%[2.33 µM]; B: 13.5%; C: -4.5%; D: .; E: .; F: .
SMILES: COc1cc(OC)cc(-c2nc3nc(C)c(CCC(=O)Nc4ccc(Cl)cc4)c(C)n3n2)c1
  A: 10.2%[59 µM]; B: .; C: -2.2%; D: .; E: .; F: .
SMILES: COc1ccc(N(CC(=O)NCCSC2CCCCC2)S(C)(=O)=O)c(OC)c1
  A: -32.1%[12.7 µM]; B: ?; C: -0.6%; D: -6.0%; E: 2.2%; F: 14.1µM*
SMILES: CCCCN(CCCNC(=O)C1CCN(S(=O)(=O)N2CCOCC2)CC1)c1ccccc1
  A: 39.8µM*; B: -5.9%; C: 13.4%; D: ?; E: ?; F: ?
SMILES: COc1ccc(CCNC(=O)C2CCN(S(=O)(=O)N3CCCCCC3)CC2)cc1OC
  A: 16.1%[12.7 µM]; B: 10.3%; C: -7.1%; D: -2.6%; E: 3.6%; F: 7.94µM*
SMILES: O=C(NCCc1ccccc1)C1CCN(S(=O)(=O)N2CCCCCC2)CC1
  A: -7.2%; B: 1.4%; C: -16.6%; D: ?; E: 7.2%; F: 7.08µM*
SMILES: COc1ccc(CCNC(=O)CN(C2CCCCC2)S(C)(=O)=O)cc1OC
  A: 31.6µM*; B: -6.9%; C: -3.3%; D: 1.3%; E: -20.6%; F: -4.1%
SMILES: CCN(CCCNC(=O)C1CCN(S(=O)(=O)c2c(C)[nH]c(=O)[nH]c2=O)CC1)c1cccc(C)c1
  A: 50.1µM*; B: 15.0%; C: 0.8%; D: 2.4%; E: 0.3%; F: 6.8%
SMILES: CCN(CCCNC(=O)C1CCN(S(=O)(=O)CC)CC1)c1cccc(C)c1
  A: ?; B: 9.5%; C: -1.4%; D: 4.6%; E: -5.3%; F: -1.4%
SMILES: CS(=O)(=O)N(CC(=O)NCCc1ccccc1)C1CCCCC1
  A: ?; B: -2.1%; C: -1.4%; D: 1.6%; E: -4.8%; F: 1.2%
SMILES: C=CC[n+]1ccc(/C=C2\C=Cc3cc(C)ccc3N2CC)c2ccccc21
  A: 14.1µM*; B: -18.4%; C: ?; D: .; E: 3.16µM*; F: ?
SMILES: COc1ccc(-c2cn3nc(N4CCC(C(=O)NCc5ccccc5F)CC4)sc3n2)cc1
  A: -4.8%[59 µM]; B: .; C: -31.7%; D: -2.1%[46 µM]; E: .; F: .
SMILES: CC(C)CC(=O)NC(c1cccs1)c1ccc2cccnc2c1O (stereo not drawn)
  A: 9.8%; B: 7.9%; C: 5.9%; D: -24.4%[46 µM]; E: 1.1%; F: -9.9%
SMILES: CCC(=O)NC(c1cccs1)c1ccc2cccnc2c1O (stereo not drawn)
  A: .; B: ?; C: 25.8%; D: .; E: 25.1µM*; F: -11.3%
SMILES: CC(=O)NC(c1ccc2ccccc2c1)c1ccc2cccnc2c1O (stereo not drawn)
  A: -38.4%; B: -12.8%; C: 25.6%; D: .; E: .; F: .

Compounds above that contain a thiophene ring, fused or not, in the order listed:
Abbreviations: A = G9a block; B = Sfp PPTase inh; C = miR-21 reporter; D = Lamin A splicing; E = JMJD2E inh; F = ALDH1A1 block
SMILES: CC(C)CC(=O)NC(c1cccs1)c1ccc2cccnc2c1O (stereo not drawn)
  A: 9.8%; B: 7.9%; C: 5.9%; D: -24.4%[46 µM]; E: 1.1%; F: -9.9%
SMILES: CCC(=O)NC(c1cccs1)c1ccc2cccnc2c1O (stereo not drawn)
  A: .; B: ?; C: 25.8%; D: .; E: 25.1µM*; F: -11.3%

(more compounds)
Abbreviations: A = G9a block; B = Sfp PPTase inh; C = miR-21 reporter; D = Lamin A splicing; E = JMJD2E inh; F = ALDH1A1 block
SMILES: Cc1conc1NC(c1cccs1)c1ccc2cccnc2c1O (stereo not drawn)
  A: 28.0%[2.33 µM]; B: 50.1µM*; C: 23.1%; D: ?; E: ?; F: ?
SMILES: Cc1cc(=O)n2nc(N3CCC(C(=O)NCc4ccccc4Cl)CC3)sc2n1
  A: 58.9%[59 µM]; B: 6.0%; C: -9.5%; D: .; E: .; F: .
SMILES: COc1cc(NC(=O)c2cc3nc(-c4ccccc4)cc(-c4ccccc4)n3n2)c(OC)cc1Cl
  A: -1.3%[59 µM]; B: .; C: -2.1%; D: .; E: .; F: .
SMILES: COc1cccc(-c2cc3c(=O)n(-c4ccccc4)c(=S)[nH]c3s2)c1
  A: ?; B: -3.0%; C: -24.3%; D: 1.4%; E: ?; F: ?
